This is a selection; strong and weak results do not stand in their true shares. Some of these compounds have results that are not shown, active ones among them. Active and inactive are the calls of the source. Rule as the data show it: active = TR-FRET ratio above about 2300; inactive = the rest.
Assay: signal artefacts in PPARgamma/SRC-1 readout – biochemical, TR-FRET emission ratio, artefact control for PPARgamma SRC-1 recruitment agonists, primary screen (AID 1051)
Conditions: TR-FRET detection artefact counter-screen, at 8 µM, stronger effect = higher value
For O=C(NCC1(N2CCCCC2)CCCCC1)c1cc([N+](=O)[O-])ccc1Cl, the TR-FRET ratio was inactive: 1600. For CCN1CCCC(OC(=O)C2(O)c3ccccc3C=Cc3ccccc32)C1 (stereo unspecified), the TR-FRET ratio was inactive: 1790. With C=CCN1CCN(CCOC(=O)C(O)(c2ccccc2)c2ccccc2)CC1 the TR-FRET ratio was inactive: 1910. In the case of CN(C)C1CCCC1OC(=O)C(O)(c1ccccc1)c1ccccc1 (stereo unspecified), the TR-FRET ratio is reported as inactive: 2040. For Cc1ccccc1C(=O)NCC1(N2CCCCC2)CCCCC1, the TR-FRET ratio was inactive: 1840. With COc1cccc(C(=O)NCC2(N3CCCCC3)CCCCC2)c1 the TR-FRET ratio was inactive: 1690.

Reference: PubChem BioAssay AID1051 (The Scripps Research Institute Molecular Screening Center, 2008)
